# Laboratory results from article PMC3578047 (European journal of pharmacology, 2012).
# By UniProt entry, the sequences of proteins in these tests, tags left out. Where a name states a change or a piece, a line headed by the entry shows the natural chain unless it says otherwise.
# UniProt P80299: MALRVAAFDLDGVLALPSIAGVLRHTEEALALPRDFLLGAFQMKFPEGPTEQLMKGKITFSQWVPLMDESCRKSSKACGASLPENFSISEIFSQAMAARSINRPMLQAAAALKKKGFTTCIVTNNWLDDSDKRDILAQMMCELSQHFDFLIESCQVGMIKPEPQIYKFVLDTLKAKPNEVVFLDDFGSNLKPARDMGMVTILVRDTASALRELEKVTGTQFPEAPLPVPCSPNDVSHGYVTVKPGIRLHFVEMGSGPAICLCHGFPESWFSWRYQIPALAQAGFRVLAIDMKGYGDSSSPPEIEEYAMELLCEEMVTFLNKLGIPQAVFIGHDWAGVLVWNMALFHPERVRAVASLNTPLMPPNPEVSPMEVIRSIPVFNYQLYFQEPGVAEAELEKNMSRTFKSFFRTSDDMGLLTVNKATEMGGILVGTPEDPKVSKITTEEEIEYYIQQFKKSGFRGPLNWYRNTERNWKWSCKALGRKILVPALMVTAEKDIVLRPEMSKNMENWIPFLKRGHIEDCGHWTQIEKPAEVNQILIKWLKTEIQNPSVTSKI
# Molecular target: recombinant rat sEH (Rattus norvegicus, UniProt P80299)
# Assay type: biochemical
smiles,measurement,value
"CC(=O)N1CCC(NC(=O)NC23CC4CC(CC(C4)C2)C3)CC1 [APAU, 1-(1-acetypiperidin-4-yl)-3-adamantanylurea]",off rate from the enzyme,much slower off rate from the rat recombinant sEH than corresponding mouse or human enzyme
